Data taken from US20240398816A1, “Gel Treatment for Loss of Taste and Smell” (Cyrano Therapeutics, Inc., priority 2021, published 2024).

Tested on: patient who had loss of taste and smell from COVID-19
[1] = 3 months after initial administration, 80 μg theophylline nasal spray once per day, Pre 10
[2] = 3 months after initial administration, 80 μg theophylline nasal spray once per day, Pre 11
[3] = 3 months after initial administration, 80 μg theophylline nasal spray once per day, Pre 12

Cn1c(=O)c2[nH]cnc2n(C)c1=O [Theophylline]
Detection threshold (DT), thiophene (Thio) [1]: 4 bottle units | Recognition threshold (RT), thiophene (Thio) [1]: 4 bottle units | Detection threshold (DT), amyl acetate (AA) [2]: 4 bottle units | Detection threshold (DT), nitrobenzene (NO2B) [2]: 9 bottle units | Recognition threshold (RT), pyridine (Pyr) [2]: 7 bottle units | Detection threshold (DT), pyridine (Pyr) (3 months after initial administration, 80 μg theophylline nasal spray once per day, Pre 11, 5 or lower normal): 7 bottle units | Recognition threshold (RT), amyl acetate (AA) [3]: 4 bottle units | Recognition threshold (RT), nitrobenzene (NO2B) [3]: 9 bottle units | Detection threshold and recognition threshold in all four odorant tests (3 months vs baseline): improved | Factor by which the detectable concentration of AA was lower (3 months vs baseline): 108 | Improvement of recognition threshold (RT) of AA (3 months vs baseline, equivalent to 8 orders of magnitude): 8 bottle units
